Data on two compounds can be found in US20250236589A1, “THERAPEUTIC PHENETHYLAMINE COMPOSITIONS AND METHODS OF USE” (Cybin IRL Limited, priority 2022, published 2025).

By UniProt entry, the sequences of proteins in these tests, tags left out. Residues count along the entry.
UniProt P28335, 33-458 limits assumed: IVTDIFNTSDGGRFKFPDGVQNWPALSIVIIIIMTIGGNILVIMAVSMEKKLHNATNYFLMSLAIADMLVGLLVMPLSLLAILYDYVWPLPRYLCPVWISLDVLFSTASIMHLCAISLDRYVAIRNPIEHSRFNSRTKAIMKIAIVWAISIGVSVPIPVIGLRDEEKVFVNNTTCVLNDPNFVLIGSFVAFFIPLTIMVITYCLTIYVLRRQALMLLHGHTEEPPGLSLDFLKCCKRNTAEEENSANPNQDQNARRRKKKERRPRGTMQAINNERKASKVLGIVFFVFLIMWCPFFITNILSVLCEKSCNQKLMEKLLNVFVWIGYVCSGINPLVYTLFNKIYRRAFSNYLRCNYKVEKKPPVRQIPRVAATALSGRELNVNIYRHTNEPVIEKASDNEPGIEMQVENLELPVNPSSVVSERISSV

The assay addresses 5-HT2C receptor (Homo sapiens (Human), UniProt P28335). Briefly: 5-HT2C functional assay, TRUPATH (BRET). As to conditions: for EC50: read-out: 5-HT2C EC50; for 5-HT2C Emax: relative to 5-HT.

With `C#CCCCSc1cc(OC)c(CCN)cc1OC`, the 50% effective concentration (EC50) amounted to 0.0131 µM and the “5-HT2C Emax” value is reported as 84%.

As for `COc1cc(SCC#N)c(OC)cc1CCN`, the concentration giving a half-maximal response (EC50) came out at 0.0356 µM and the “5-HT2C Emax” value is reported as 84%.
